The record followed here is ChEMBL document CHEMBL1149228, “Analysis of structure-activity relationships for the 'B-region' of N-(3-acyloxy-2-benzylpropyl)-N(')-[4-(methylsulfonylamino)benzyl]thiourea analogues as vanilloid receptor antagonists: discovery of an N-hydroxythiourea analogue with potent analgesic activity” (Bioorg Med Chem Lett, 2004).

Protein sequences, listed by entry. Tags and fused reporters are not part of them.
UniProt O35433, whole entry: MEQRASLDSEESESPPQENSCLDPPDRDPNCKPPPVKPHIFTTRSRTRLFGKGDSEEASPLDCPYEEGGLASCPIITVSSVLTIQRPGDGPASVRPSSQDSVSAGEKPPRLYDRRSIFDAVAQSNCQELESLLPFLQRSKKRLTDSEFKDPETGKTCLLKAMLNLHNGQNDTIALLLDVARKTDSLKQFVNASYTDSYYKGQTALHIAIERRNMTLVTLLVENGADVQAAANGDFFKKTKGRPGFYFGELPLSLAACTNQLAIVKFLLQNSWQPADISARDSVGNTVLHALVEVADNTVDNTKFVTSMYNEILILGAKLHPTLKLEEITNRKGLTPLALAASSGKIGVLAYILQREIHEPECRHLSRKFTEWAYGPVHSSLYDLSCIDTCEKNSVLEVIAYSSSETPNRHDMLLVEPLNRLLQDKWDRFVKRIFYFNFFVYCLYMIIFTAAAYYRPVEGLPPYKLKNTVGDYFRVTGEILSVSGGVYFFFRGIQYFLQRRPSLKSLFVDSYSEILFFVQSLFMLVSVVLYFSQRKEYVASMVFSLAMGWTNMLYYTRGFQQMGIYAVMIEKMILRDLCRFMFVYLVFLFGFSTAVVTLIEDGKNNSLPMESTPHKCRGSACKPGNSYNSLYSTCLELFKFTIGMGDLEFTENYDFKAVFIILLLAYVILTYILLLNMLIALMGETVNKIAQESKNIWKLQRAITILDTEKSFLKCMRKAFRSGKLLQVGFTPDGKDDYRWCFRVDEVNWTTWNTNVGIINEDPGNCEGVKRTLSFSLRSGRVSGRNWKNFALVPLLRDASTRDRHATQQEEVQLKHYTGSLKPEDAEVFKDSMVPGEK

Structures are written as SMILES.

In the assay the target is Transient receptor potential cation channel subfamily V member 1 (Rattus norvegicus) (UniProt O35433). The experiment in a line: Agonist-induced 45 [Ca2+] influx relative to 300 nM capsaicin in vanilloid receptor expressing CHO cells.
With `Cc1ccc(CC(CNC(=S)N(O)Cc2ccc(NS(C)(=O)=O)c(F)c2)COC(=O)C(C)(C)C)cc1C` (centres undefined), the agonist efficacy was 24%.

In turn, `COc1cc(CO/C(S)=N/CC(COC(=O)C(C)(C)C)Cc2ccc(C)c(C)c2)ccc1NS(C)(=O)=O` (centres undefined) showed an agonist efficacy of 50%.

Turning to `COc1cc(CC(=O)NCC(COC(=O)C(C)(C)C)Cc2ccc(C)c(C)c2)ccc1NS(C)(=O)=O` (centres undefined), the agonist efficacy worked out at 40%.

In the case of `Cc1ccc(CC(COC(=O)C(C)(C)C)CN(O)/C(S)=N/Cc2ccc(NS(C)(=O)=O)cc2F)cc1C` (centres undefined), the agonist efficacy was 20%.
